According to US20190046478A1, “BIOLOGICAL MARKER FOR IDENTIFYING CANCER PATIENTS FOR TREATMENT WITH A BIGUANIDE” (THE ROYAL INSTITUTION FOR THE ADVANCEMENT OF …, priority 2017, published 2019):

Assays:
[1] = test system: Eμ-Myc lymphoma cells; details: 48 hours, FIG. 3A
Experimental: Eμ-Myc cells were cultured on a layer of irradiated Ink4a-null MEF feeder cells in DMEM and IMDM medium (50:50 mix) supplemented with 10% fetal bovine serum (FBS), 20000 U/mL penicillin, 7 mM streptomycin, 2 mM glutamine, and β-mercaptoethanol. Raji cells were cultured in RPMI medium supplemented with 10% FBS, 20000 U/mL penicillin, 7 mM streptomycin, and 2 mM glutamine. Cells were grown at 37° C. in a humidified atmosphere supplemented with 5% (v/v) CO2.
Cells were seeded at a density of 1×10^5 cells/mL in 3.5 cm dishes, and cell counts determined via trypan blue exclusion using a TC20 Automated Cell Counter (Biorad). For viability measurements, cells were stained with Fixable Viability Dye eFluor 780 (eBioscience), and analyzed using a Gallios flow cytometer (Beckman Coulter, Fullerton, Calif.) and FlowJo software (Tree Star, Ashland, Oreg.).

[2] = test system: Eμ-Myc cells; assay: LC-MS analysis of GSH/GSSG, NADP+/NADPH and NAD+/NADH ratios; assay type: cell-based, mouse; details: 2 hours
Experimental: Aqueous supernatants were dried by vacuum centrifugation with sample temperature maintained at −4° C. (Labconco, Kansas City Mo., USA). Pellets were subsequently resuspended in 25 μL of H2O as the injection buffer. Chromatographic separation was performed on a Scherzo SM-C18 column 3 μm, 3.0×150 mm (Imtakt Corp, JAPAN). The chromatographic gradient started at 100% mobile phase A (0.2% formic acid in water) with a 2 min hold followed with a 6 min gradient to 80% B (0.2% formic acid in MeOH) at a flow rate of 0.4 mL/min. This was followed by a 5 min hold time at 100% mobile phase B and a subsequent re-equilibration time (6 min) before next injection. […] Analyte ionization was accomplished using ESI in positive ionization mode. […] MS data were acquired in full scan mode mass range: m/z 100-1000; scan time: 1.4 s; data collection: centroid and profile modes. […] For all LC/MS analyses, 1 μL of sample was injected. The column temperature was maintained at 10° C. Data were quantified by integrating the area under the curve of each compound using MassHunter Quant (Agilent Technologies, Santa Clara, Calif., USA). Each metabolite's accurate mass ion was extracted (EIC) using a 10 ppm window. Relative concentrations were determined from external calibration curves.

[3] = 100 μM phenformin or 10 μM Compound 1, FIG. 5C

## [H]/N=C(/N)N/C(=N/[H])NCCc1ccccc1 [phenformin, reference compound]
[1]
  Viability of +17˜92 cells at doses not toxic in control cells: viability of +17˜92 cells was affected
[2]; 100 μM phenformin or 10 μM Compound 1, FIG. 5B
  GSH/GSSG ratio: no significant changes
[2]; [3]
  NADP+/NADPH ratio in +17˜92 cells: increase their NADP+/NADPH ratio
  NADP+/NADPH ratio in control cells: not control cells
